What was measured:
caspase 3/7 = test: Evaluation of caspase activity (Caspase-Glo 3/7 Assay Kit); assay type: cell-based; conditions: MDA-MB-231 cells, 12 hours, compared to untreated MDA-MB-231 cells; 0.5, 1, 5 μM tested
Description: (§1) MDA-MB-231 breast cancer cells (ATCC #HTB-26) were plated in 96-well plates at a density of 1.0 1.5×10^4 cells/well. […] Then, media were removed and the cells were washed two times with PBS at 4° C. The cells were treated with a solution of the analysis samples and media (1:1) in an amount of 140 μL/well using Caspase-GloTM 9 Assay Kit (Cat#. […]; Promega, USA) and Caspase-GloTM 3/7 Assay Kit (Cat#. […]; Promega, USA). After the cells were incubated at 37° C. for 2 hours, luminescence was measured using InfiniteTM M1000 multi reader (Tecan). […] The values were represented as “***” for six fold or more, “**” for 4 fold to below 6 fold, and “*” for 1 fold to below 4 fold, as compared to that of untreated, normal MDA-MB-231 breast cancer cell lines.

caspase 9 = test: Evaluation of caspase activity (Caspase-Glo 9 Assay Kit); assay type: cell-based; conditions: MDA-MB-231 cells, 16 hours, compared to untreated MDA-MB-231 cells; 0.5, 1, 5 μM tested
Description: as §1

[1] = tested on: MDA-MB-231 breast cancer cell lines; test: Evaluation of inhibition on cell growth (MTS); assay type: cell-based; conditions: 120 hours
Description: (§2) MDA-MB-231 breast cancer cell lines (ATCC #HTB-26) and BxPC-3 pancreas cancer cell lines (ATCC #CRL 1687), which have been reported to express XIAP, were obtained from ATCC (American type culture collection; Rockville, Md.). MDA-MB-231 cell lines were incubated in L-15 medium supplemented with 10% FBS and 1% penicillin/streptomycin (Gibco BRL) at a T-75 cm^2 growth flask. In addition, BxPC-3 cell lines were incubated in RPMI medium supplemented with 10% FBS and 1% penicillin/streptomycin. For experiments of toxicity to normal cells, fibroblasts Hs27 (ATCC #CRL 1634) and Balb/c3t3 (ATCC #CCL 163) were used. […]
(§3) Cell viabilities of MDA-MB-231 cell lines were measured at an absorbance of 490 nm using CellTiter 96™ AQueous One Solution Cell proliferation Assay (MTS, Promega), and cell viabilities of BxPC-3 and normal cell lines were measured by fixing cells with 10% TCA (trichloroacetic acid), staining with SRB (sulforhodamine B), and measuring at 540 nm. […] The growth rates of cancer cells were calculated from following Equation 1 or 2. […] In Equations 1 and 2, Tz refers to a density of untreated cells, which is an absorbance in 0% cell growth groups. […]

Balb/c3t3 fibroblasts = test: Toxicity to normal cells (SRB); assay type: cell-based, mouse; conditions: normal cell line, 72 hours, read-out: BalB/C (GI50)
Description: as §2, §3

Hs27 fibroblasts = test: Toxicity to normal cells (SRB); assay type: cell-based, human; conditions: normal cell line, 72 hours
Description: as §2, §3

## C[C@H](N)C(=O)N[C@@H](CCCNC(=N)N)C(=O)N1CCC[C@H]1C(=O)N[C@@H](Cc1ccccc1)C(N)=O [Control, alanine-alginine-proline-phenylalanine-NH2, reference compound]
Caspase 3/7
  Caspase-3: ** (4 fold to below 6 fold)
Caspase 9
  Caspase-9: ** (4 fold to below 6 fold)
[1]
  GI50: 0.1 to 1 µM
Balb/c3t3 fibroblasts
  GI50: > 10 µM
Hs27 fibroblasts
  GI50: > 10 µM

Source: patent US8835458B2 (Hanmi Science Co., Ltd, priority 2010, dated 2014)
